Results from patent US11149062B2, “HDAC inhibitors and methods of treatment using the same” (UWM Research Foundation, Inc., priority 2015, dated 2021).

Biological target: T1, Recombinant human HDAC8 (Homo sapiens, UniProt Q9BY41)
T1 construct: purchased BPS Bioscience Inc
T1 sequence (Q9BY41 1-377): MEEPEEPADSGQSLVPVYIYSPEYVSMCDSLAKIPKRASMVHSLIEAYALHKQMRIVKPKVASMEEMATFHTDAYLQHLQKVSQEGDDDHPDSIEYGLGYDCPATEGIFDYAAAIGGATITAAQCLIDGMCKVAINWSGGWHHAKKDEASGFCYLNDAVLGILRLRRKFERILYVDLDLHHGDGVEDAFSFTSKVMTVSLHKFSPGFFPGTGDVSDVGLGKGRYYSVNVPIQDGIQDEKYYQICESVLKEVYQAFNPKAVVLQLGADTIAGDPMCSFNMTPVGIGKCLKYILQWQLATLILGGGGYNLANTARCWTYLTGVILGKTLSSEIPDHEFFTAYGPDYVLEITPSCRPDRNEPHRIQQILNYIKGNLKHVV
Test: HDAC-Glo I/II assay, HDAC8
Type: biochemical

O=C(CCCCCCC(=O)Nc1ccccc1)NO [SAHA, suberoyl anilide hydroxamic acid, reference compound]
IC50: 7.04 µM
